Data on one protein can be found in article PMC5983490, “White-rot basidiomycetes Junghuhnia nitida and Steccherinum bourdotii: Oxidative potential and laccase properties in comparison with Trametes hirsuta and Coriolopsis caperata” (PLoS ONE, 2018).

Substrate in the data set: CCn1c(=NN=c2sc3cc(S(=O)(=O)O)ccc3n2CC)sc2cc(S(=O)(=O)O)ccc21
The data set can be described thus: purified protein. The settings on record: 0.1 M McIlvaine buffer pH 4.5, 25 °C.

B1: ThL (Trametes hirsuta laccase) (Trametes hirsuta) (protein)
chain: AVGPVADLTITDAAVSPDGFSRQAVVVNGVTPGPLVAGNIGDRFQLNVIDNLTNHTMLKSTSIHWHGFFQHGTNWADGPAFINQCPISPGHSFLYDFQVPDQAGTFWYHSHLSTQYCDGLRGPFVVYDPNDPHASRYDVDNDDTVITLADWYHTAAKLGPRFPGGADATLINGKGRAPSDSPAELSVIKVTKGKRYRFRLVSLSCNPNHTFSIDGHNLTIIEVDSVNSQPLEVDSIQIFAAQRYSFVLDANQAVDNYWIRANPNFGNVGFDGGINSAILRYDGAPAVEPTTNQTTSVKPLNEVDLHPLVSTPVPGSPSSGGVDKAINMAFNFNGSNFFINGASFVPPTVPVLLQILSGAQTAQDLLPSGSVYVLPSNASIEISFPATAAAPGAPHPFHLHGHTFAVVRSAGSTVYNYDNPIFRDVVSTGTPAAGDNVTIRFDTNNPGPWFLHCHIDFHLEGGFAVVMAEDTPDVKAVNPVPQAWSDLCPTYDALDPNDQ
As a reminder, the Km is the substrate concentration at which the rate is half of its maximum. One may read the kcat as the number of substrate molecules converted per active site and unit of time at saturation. As a reminder, the kcat/Km is the second-order rate constant that governs catalysis at low substrate concentration. On to B1, for which the Michaelis constant (Km) stood at 17 ± 2 µM, the kcat stood at 122 s⁻¹ and the kcat/Km was 7.18e+06 M⁻¹ s⁻¹.
